The values that follow come from patent publication US20140135319A1, “6-SUBSTITUTED IMIDAZOPYRAZINES FOR USE AS MPS-1 AND TKK INHIBITORS IN THE TREATMENT OF HYPERPROLIFERATIVE DISORDERS” (BAYER INTELLECTUAL PROPERTY GMBH, priority 2010, published 2014).

By UniProt entry, the sequences of proteins in these tests, tags left out.
UniProt P33981, whole entry: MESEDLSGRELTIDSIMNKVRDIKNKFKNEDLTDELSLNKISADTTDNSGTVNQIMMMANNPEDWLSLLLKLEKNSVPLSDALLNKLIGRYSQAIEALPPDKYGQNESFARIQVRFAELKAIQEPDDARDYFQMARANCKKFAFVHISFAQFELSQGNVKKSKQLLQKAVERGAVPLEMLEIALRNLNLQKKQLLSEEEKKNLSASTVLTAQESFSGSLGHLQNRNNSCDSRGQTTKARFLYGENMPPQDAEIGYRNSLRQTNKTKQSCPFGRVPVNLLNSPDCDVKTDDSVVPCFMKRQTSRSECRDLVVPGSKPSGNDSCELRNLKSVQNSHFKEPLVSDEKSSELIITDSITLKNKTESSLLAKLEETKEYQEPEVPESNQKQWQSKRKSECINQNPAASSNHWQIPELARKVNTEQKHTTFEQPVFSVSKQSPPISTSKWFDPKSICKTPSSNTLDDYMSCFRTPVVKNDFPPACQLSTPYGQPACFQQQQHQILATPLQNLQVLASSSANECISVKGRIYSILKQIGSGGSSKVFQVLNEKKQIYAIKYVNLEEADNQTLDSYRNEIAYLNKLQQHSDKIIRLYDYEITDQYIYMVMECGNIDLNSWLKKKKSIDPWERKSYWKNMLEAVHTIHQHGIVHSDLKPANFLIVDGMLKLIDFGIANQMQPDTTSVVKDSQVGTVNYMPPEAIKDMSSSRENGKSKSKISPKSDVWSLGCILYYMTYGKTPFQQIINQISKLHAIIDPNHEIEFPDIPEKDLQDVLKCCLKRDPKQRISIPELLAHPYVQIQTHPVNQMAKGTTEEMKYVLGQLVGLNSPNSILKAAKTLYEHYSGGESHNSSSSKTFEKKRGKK

The target in the test is human kinase Mps-1 (Homo sapiens, UniProt P33981). Description: Mps-1 kinase assay (TR-FRET). To be noted: read-out: Mps-1 IC50; GST-tagged human full length recombinant Mps-1; 10 μM ATP; 1 μM peptide substrate; 60 min at 22° C.

On to `CC(C)CNc1nc(-c2cccc(CC(N)=O)c2)cn2c(-c3ccc(C(=O)NC4CC4)cc3)cnc12`, for which the 50% inhibitory concentration (IC50) amounted to 1 nM.
